2 molecules from publication PMC4194234 (Psychopharmacology, 2014) can be followed below.

Sequences of proteins named here, by UniProt entry; tags and fusion partners are left off.
UniProt P08908, whole entry: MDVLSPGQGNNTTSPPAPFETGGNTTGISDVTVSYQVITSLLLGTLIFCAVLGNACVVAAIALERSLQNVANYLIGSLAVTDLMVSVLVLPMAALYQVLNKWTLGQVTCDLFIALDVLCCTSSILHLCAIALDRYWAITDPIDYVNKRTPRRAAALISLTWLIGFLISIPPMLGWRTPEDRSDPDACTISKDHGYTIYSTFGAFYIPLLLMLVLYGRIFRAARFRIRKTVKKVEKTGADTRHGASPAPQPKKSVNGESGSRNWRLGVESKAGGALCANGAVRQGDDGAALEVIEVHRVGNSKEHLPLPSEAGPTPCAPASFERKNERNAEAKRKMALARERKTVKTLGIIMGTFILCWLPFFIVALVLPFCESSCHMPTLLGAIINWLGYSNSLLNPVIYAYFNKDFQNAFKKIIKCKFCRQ
UniProt P28223, whole entry: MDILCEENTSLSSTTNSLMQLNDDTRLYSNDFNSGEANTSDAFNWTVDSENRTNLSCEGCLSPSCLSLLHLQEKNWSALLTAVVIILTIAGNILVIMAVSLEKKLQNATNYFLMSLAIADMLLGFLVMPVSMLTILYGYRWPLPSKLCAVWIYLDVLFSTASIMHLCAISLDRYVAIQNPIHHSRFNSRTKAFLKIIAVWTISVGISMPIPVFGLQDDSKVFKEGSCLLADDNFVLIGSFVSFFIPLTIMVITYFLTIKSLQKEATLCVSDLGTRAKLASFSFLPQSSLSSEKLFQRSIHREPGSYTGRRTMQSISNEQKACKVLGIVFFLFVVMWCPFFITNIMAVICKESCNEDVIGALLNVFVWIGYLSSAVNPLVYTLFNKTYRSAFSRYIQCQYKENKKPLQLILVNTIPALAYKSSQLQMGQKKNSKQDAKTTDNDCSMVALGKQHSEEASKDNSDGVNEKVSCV
UniProt P31652, whole entry: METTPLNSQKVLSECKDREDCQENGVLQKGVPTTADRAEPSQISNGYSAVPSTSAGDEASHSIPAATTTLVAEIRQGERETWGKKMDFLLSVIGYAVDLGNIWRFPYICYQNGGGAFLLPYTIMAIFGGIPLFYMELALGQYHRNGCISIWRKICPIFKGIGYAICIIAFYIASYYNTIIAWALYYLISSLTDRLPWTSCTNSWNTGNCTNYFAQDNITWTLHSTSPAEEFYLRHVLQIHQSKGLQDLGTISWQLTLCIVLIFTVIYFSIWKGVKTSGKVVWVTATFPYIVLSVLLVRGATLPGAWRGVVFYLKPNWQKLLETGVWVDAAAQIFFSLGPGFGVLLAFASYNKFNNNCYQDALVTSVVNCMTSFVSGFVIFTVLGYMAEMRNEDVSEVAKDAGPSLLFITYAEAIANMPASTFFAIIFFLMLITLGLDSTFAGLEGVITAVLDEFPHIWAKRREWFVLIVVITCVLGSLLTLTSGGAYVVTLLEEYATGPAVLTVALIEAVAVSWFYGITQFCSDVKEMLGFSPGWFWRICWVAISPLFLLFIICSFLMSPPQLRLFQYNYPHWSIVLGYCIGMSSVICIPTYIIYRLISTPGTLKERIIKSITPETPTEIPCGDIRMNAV

The term EC50 denotes the concentration at which the effect is half-maximal. By Emax is commonly meant the size of the effect at its maximum, as opposed to the concentration needed.

Test [1] deals with 5-HT1A receptor (Homo sapiens, UniProt P08908). Description: 5-HT1A calcium mobilization assay in Gα16-CHO cells. It is filed as cell-based. On the technique in general: Calcium flux is commonly read through the fluorescence of an indicator in the cells.
The target of test [2] is 5-HT2A receptor (Homo sapiens, UniProt P28223). Description: cell-based. Conditions: HEK293, read-out: 5-HT2A Emax.
The target in test [3] is SERT (Rattus norvegicus, UniProt P31652). Description: SERT-mediated release, rat brain synaptosomes.

As for `COc1ccc2[nH]cc(CCN(C)C)c2c1` [Compound 7, N,N-dimethyl-5-methoxytryptamine], the EC50 in test [1] came to 791 ± 133 nM. As to `CN(C)CCc1c[nH]c2ccc(O)cc12` [Compound 16, N,N-dimethyl-5-hydroxytryptamine], the Emax in test [2] was found to be 100 ± 2%. In test [3], a half-maximal effect (EC50) was put at 30.5 ± 8.6 nM.
